Bioassay records as filed in PubChem BioAssay.
DENV2 CPE: protects cells from dengue virus 2 cytopathic effect; DENV2-infected cells, cytopathic effect rescue, plate reader; CPE inhibition, % at 9.99 µM; hit rate 1.7% among 350,000; AID 651640; in the data active = CPE inhibition above about 20%, passing the limit was not always enough; tested in BHK-21 cells
UUG fidelity: modulators of yeast start codon fidelity, primary screen, whole organism, S. cerevisiae, single point, plate reader; S. cerevisiae UUG-firefly luciferase reporter, luminescence/redox ratio; activity score, % at 18.7 µM; 0.13% of 350,000 active; AID 602363, 2012;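 active = replicate mean at a twofold rise or more, about +100% in these data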;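 also: firefly luciferase made from a UUG start codon reports start codon fidelity; reporter light over untreated wells divided by growth signal over untreated wells; some hits fall short of that in this replicate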
Cneo AK release: Cryptococcus neoformans lysis via adenylate kinase release; C. neoformans lysis, adenylate kinase release luminescence, 4 h; normalised: neutral wells 0, clomiphene wells 100; lysis activity, % at 15 µM; hit rate 0.2% among 360,000;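 active = mean lysis activity across replicates of at least 80%, whatever share of replicates individually reach that level; inactive = mean lysis activity below 80%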
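Material: C. neoformans cells; Schedule: 4 h static compound exposure, 37 °C, read 1 h post-reagent; Measured by: adenylate kinase release luminescence; Read-out: signal increase indicating cell lysis; Controls: Clomiphene as positive lysis control.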
E-sel inducer: E-selectin induction on HUVECs; AID 686992; hit rate 0.37% among 260,000; activation, % at 7.58 µM; HUVEC E-selectin immunofluorescence imaging; normalized: neutral wells 0, TNF-alpha wells 100; P16581;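 active = mean E-selectin-positive cell signal at least 10% of the positive control, reached in at least 60% of replicates, without over 20% cell loss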
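material = human umbilical vein endothelial cells (HUVEC), E-selectin induction | quantity = 3,000 cells/well | medium = EGM-2 growth medium on 0.1% gelatin-coated wells | technique = immunofluorescence imaging | read-out basis = % PE-positive cells | control set = TNF-alpha positive control, DMSO neutral control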
Of the large screens only hits and unclear results are named; the others gave an inactive call. Only some compounds are listed: those with a hit (about 1.8% of all), similar ones and a draw of the others.

C[C@H](CO)N1C[C@H](C)[C@@H](CN(C)S(=O)(=O)c2cn(C)cn2)Oc2ccc(NC(=O)Nc3ccccc3)cc2CC1=O	none
C[C@@H]1CN([C@H](C)CO)C(=O)Cc2cc(NS(C)(=O)=O)ccc2O[C@H]1CN(C)S(=O)(=O)c1cn(C)cn1	E-sel inducer 389
COc1ccc(NC(=O)Nc2ccc3c(c2)CC(=O)N([C@H](C)CO)C[C@H](C)[C@H](CN(C)S(=O)(=O)c2cn(C)cn2)O3)cc1	DENV2 CPE 27 (no result: E-sel inducer)
C[C@@H]1CN([C@H](C)CO)C(=O)Cc2cc(NC(=O)Nc3ccc(F)cc3)ccc2O[C@@H]1CN(C)S(=O)(=O)c1cn(C)cn1	E-sel inducer 85 (no result: DENV2 CPE, UUG fidelity, Cneo AK release)
C[C@H](CO)N1C[C@H](C)[C@H](CN(C)S(=O)(=O)c2ccccc2)Oc2ccc(NC(=O)Nc3cccc4ccccc34)cc2C1=O	none
CCCC#Cc1ccc([C@H]2[C@@H](CO)N(C(C)=O)[C@H]2CNC(=O)C2CC2)cc1	none (no result: UUG fidelity, Cneo AK release)
C[C@H](CO)N1C[C@H](C)[C@H](CN(C)C(=O)Nc2ccc3c(c2)OCO3)Oc2c(NC(=O)NC3CCCCC3)cccc2C1=O	none
CN1c2ccc(-c3cccc(C#N)c3)cc2[C@@H]2[C@@H](CCN2S(=O)(=O)c2cccc(F)c2)[C@@H]1CO	DENV2 CPE 73
Cc1ccccc1S(=O)(=O)N1CC[C@@H]2[C@@H](CO)N(C)c3ccc(-c4ccccc4)cc3[C@@H]21	none
Cc1ccccc1S(=O)(=O)N1CC[C@@H]2[C@H]1c1cc(-c3ccc(C#N)cc3)ccc1N(C)[C@H]2CO	DENV2 CPE 27
Cc1ccccc1S(=O)(=O)N1CC[C@@H]2[C@H]1c1cc(-c3cccc(F)c3)ccc1N(C)[C@H]2CO	DENV2 CPE 22
COc1cccc(-c2ccc3c(c2)[C@@H]2[C@@H](CCN2S(=O)(=O)c2ccccc2C)[C@H](CO)N3C)c1	DENV2 CPE 28
O=C(NC1CCCC1)N1CC(=O)N2[C@@H](CO)[C@H](c3ccc(-c4cccnc4)cc3)[C@@H]2C1	none (no result: UUG fidelity, Cneo AK release)
CC(=O)N(C)C[C@@H]1Oc2cc(C#Cc3ccncc3)ccc2S(=O)(=O)N([C@H](C)CO)C[C@@H]1C	none
COc1ccc(CN2C[C@H](C)[C@H](OC)CN(C)C(=O)c3cc(NC(=O)c4nc5ccccc5s4)ccc3OC[C@@H]2C)cc1	DENV2 CPE 22
CCC(=O)Nc1ccc2c(c1)C(=O)N(C)C[C@@H](OC)[C@H](C)CN(Cc1ccccc1)[C@@H](C)CO2	DENV2 CPE 37
COCC(=O)Nc1ccc2c(c1)OC[C@H](C)N(Cc1ccccc1OC)C[C@H](C)[C@@H](OC)CN(C)C2=O	DENV2 CPE 22 (no result: UUG fidelity, Cneo AK release)
COc1ccc(CN2C[C@@H](C)[C@@H](OC)CN(C)C(=O)c3cc(NC(=O)c4nc5ccccc5s4)ccc3OC[C@H]2C)cc1	none
CCC(=O)Nc1ccc2c(c1)C(=O)N(C)C[C@@H](OC)[C@@H](C)CN(Cc1ccccc1)[C@H](C)CO2	none
CO[C@@H]1CN(C)C(=O)c2cc(NS(=O)(=O)CC(F)(F)F)ccc2OC[C@@H](C)N(Cc2cccnc2)C[C@@H]1C	none
CO[C@H]1CN(C)C(=O)c2cc(NS(=O)(=O)CC(F)(F)F)ccc2OC[C@@H](C)N(Cc2cccnc2)C[C@@H]1C	Cneo AK release 88
CCC(=O)Nc1ccc2c(c1)C(=O)N(C)C[C@H](OC)[C@H](C)CN(Cc1ccccc1OC)[C@H](C)CO2	none
COCC(=O)Nc1ccc2c(c1)C(=O)N(C)C[C@@H](OC)[C@H](C)CN(Cc1ccccc1)[C@@H](C)CO2	Cneo AK release 112
COCC(=O)Nc1ccc2c(c1)C(=O)N(C)C[C@H](OC)[C@@H](C)CN(Cc1ccccc1)[C@@H](C)CO2	DENV2 CPE 26
COc1ccccc1CN1C[C@@H](C)[C@H](OC)CN(C)C(=O)c2cc(NC(=O)Nc3ccccc3OC)ccc2OC[C@H]1C	none
CCC(=O)Nc1ccc2c(c1)C(=O)N(C)C[C@H](OC)[C@H](C)CN(Cc1ccccc1OC)[C@@H](C)CO2	DENV2 CPE 22
COc1ccccc1NC(=O)Nc1ccc2c(c1)C(=O)N(C)C[C@@H](OC)[C@H](C)CN(Cc1ccccc1Cl)[C@H](C)CO2	DENV2 CPE 28 (no result: UUG fidelity)
CNC(=O)C[C@H]1CC[C@@H]2[C@H](COc3ccc(NC(=O)Nc4ccccc4OC)cc3C(=O)N2C)O1	none
CCC(=O)Nc1ccc2c(c1)OC[C@@H](C)N(Cc1cccnc1)C[C@H](C)[C@@H](OC)CN(C)C2=O	DENV2 CPE 48
